{"source": "patent US10029014B2", "about": "“Synthesis of novel asymmetric bow-tie PAMAM dendrimer-based conjugates for tumor-targeting drug delivery” (priority 2013, dated 2018)", "key": {"MX-1": {"system": "MX-1", "experiment": "Cytotoxicity assay, MTT method, MX-1 cells"}, "WI-38": {"system": "WI-38", "experiment": "Cytotoxicity assay, MTT method, WI-38 cells", "settings": "read-out: Cytotoxicity (IC50, nM) WI-38; 72 hours of drug exposure at 37° C. under 5% CO2"}, "ID-8": {"system": "ID-8", "experiment": "Cytotoxicity assay, MTT method, ID-8 cells", "settings": "read-out: Cytotoxicity (IC50, nM) ID-8, + GSH-OEt; 24 h of drug exposure, washing with DPBS, 48 hours incubation with 6 equivalents of glutathione-OEt"}}, "note": "Where two headings read alike, the source gives them in different places.", "data": [{"substance": "Biotin-PEG3-linker-SB-T-1214 [BLT-S (40)]", "values": [{"measurement": "IC50", "setting": "MX-1; read-out: Cytotoxicity (IC50, nM) MX-1, + GSH-OEt, 24 h of drug exposure, washing with DPBS, 48 hours incubation with 6 equivalents of glutathione-OEt", "value": "1.52 ± 0.34", "unit": "nM"}, {"measurement": "IC50", "setting": "MX-1; read-out: Cytotoxicity (IC50, nM) MX-1, 72 hours of drug exposure at 37° C. under 5% CO2", "value": 26.7, "unit": "nM"}, {"measurement": "IC50", "setting": "WI-38", "value": "519 ± 90.3", "unit": "nM"}, {"measurement": "IC50", "setting": "ID-8", "value": "5.91 ± 0.32", "unit": "nM"}]}]}
